Earlier results, collected in patent US20150132388A1, “COMPLEXES OF FULVESTRANT AND ITS DERIVATIVES, PROCESS FOR THE PREPARATION THEREOF AND PHARMACEUTICAL COMPOSITIONS CONTAINING THEM” (Druggability Technologies Holdings Limited, priority 2013, published 2015).

Protein sequences, listed by entry. Tags and fused reporters are not part of them.
UniProt P08684, whole entry: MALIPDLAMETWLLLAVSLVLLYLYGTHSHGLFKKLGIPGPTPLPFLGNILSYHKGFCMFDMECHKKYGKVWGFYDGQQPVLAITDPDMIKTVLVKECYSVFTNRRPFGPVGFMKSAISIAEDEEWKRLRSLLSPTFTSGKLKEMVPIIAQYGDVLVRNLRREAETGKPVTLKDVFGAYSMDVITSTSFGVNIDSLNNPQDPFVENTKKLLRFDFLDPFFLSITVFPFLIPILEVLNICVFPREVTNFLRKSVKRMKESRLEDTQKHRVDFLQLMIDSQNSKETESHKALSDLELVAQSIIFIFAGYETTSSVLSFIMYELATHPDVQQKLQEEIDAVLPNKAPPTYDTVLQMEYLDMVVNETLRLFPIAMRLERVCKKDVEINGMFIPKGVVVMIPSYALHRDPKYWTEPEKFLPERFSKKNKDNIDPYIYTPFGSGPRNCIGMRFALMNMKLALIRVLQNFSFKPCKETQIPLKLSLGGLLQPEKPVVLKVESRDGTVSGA

Target: cytochrome P-450 3A4 (CYP 3A4) (Homo sapiens, UniProt P08684)
Conditions: human liver preparations and recombinant human enzymes; cited from earlier work

7-alpha-[9-(4,4,5,5,5-penta fluoropentylsulphinyl)nonyl]estra-1,3,5-(10)-triene-3,17 beta-diol [Fulvestrant]
P-450 isoenzyme involved in the oxidation: cytochrome P-450 3A4 (CYP 3A4) is the only P-450 isoenzyme involved
